From patent publication US20040266882A1 (priority 2001, published 2004)

Tested on: PANC-1, C6, MCF-7, U2OS and HT1080
Settings: all cases: five cell lines, DOX and VIN

## CNCCC(Oc1ccc(C(F)(F)F)cc1)c1ccccc1 (stereo not shown) [fluoxetine]
  effect on cytotoxicity of the chemotherapeutic drug: potentiates the cytotoxic effect
